Measured values: article PMC6321601, “Synthesis of Cucurbitacin B Derivatives as Potential Anti-Hepatocellular Carcinoma Agents” (Molecules, 2018)

Tested on: Balb/C mice
Assay: In vivo acute toxicity assay
Conditions: intravenous injection, three mice
Protocol: To evaluate the toxicity of compound 10b, an acute toxicity assay was performed using Balb/C mice. After the administration of cucurbitacin B or compound 10b by intravenous injection, the clinical symptoms, deaths, and body weight were observed.
Five-week-old Balb/C mice were purchased from the Chinese Academy of Sciences and maintained under specific pathogen free (SPF) conditions. The mice were divided into a control group, a cucurbitacin B group, and a compound 10b group. The control group mice were treated with vehicle buffer intravenously. The cucurbitacin B group mice were treated with cucurbitacin B at doses of 2 mg/kg, 5 mg/kg, 10 mg/kg, 20 mg/kg, and 50 mg/kg, respectively (three mice each dose). The compound 10b group mice were treated with compound 10b at doses of 2 mg/kg, 5 mg/kg, 10 mg/kg, 20 mg/kg, and 50 mg/kg respectively (three mice each dose). The clinical symptoms, deaths, and body weight were observed and recorded.

Measured: percentage of death

cucurbitacin B [Compound 1, reference compound]
3/3: 2 mg/kg | 5 mg/kg | 10 mg/kg | 20 mg/kg | 50 mg/kg
